Values of other authors in patent US20090142391A1, “Conjugated RNAi Therapeutics” (priority 2007, published 2009).

Settings: in vivo

insulin
half-life: 8 h
